The results in this text go back to patent US6936585B2, “Corticotropin releasing factor 2 receptor agonists” (priority 2002, dated 2005).

For one assay, the target named is T1, CRF2R (Homo sapiens, UniProt Q13324).
T1 sequence (Q13324 1-411): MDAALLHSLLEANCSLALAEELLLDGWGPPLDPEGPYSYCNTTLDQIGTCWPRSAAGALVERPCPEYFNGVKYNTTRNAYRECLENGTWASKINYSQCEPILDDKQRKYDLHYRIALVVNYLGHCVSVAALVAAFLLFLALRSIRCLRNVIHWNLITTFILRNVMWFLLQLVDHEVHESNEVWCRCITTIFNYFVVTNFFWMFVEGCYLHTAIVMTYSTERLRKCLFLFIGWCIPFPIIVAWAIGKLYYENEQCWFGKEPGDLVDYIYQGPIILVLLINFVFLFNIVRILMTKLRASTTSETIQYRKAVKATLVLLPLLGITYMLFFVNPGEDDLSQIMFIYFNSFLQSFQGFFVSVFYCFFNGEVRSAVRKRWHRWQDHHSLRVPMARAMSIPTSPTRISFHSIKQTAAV
In words: CRF2R agonist activation (EC50 / Emax), called comparative CRF binding. In kind it is cell-based. As to conditions: for Emax: read-out: CRF2R Emax. An excerpt: (§1) The pharmacological activity and selectivity of the peptides of present invention can be determined using published test procedures. See, e.g, U.S. patent application Ser. No. 09/799,978 (now issued U.S. Pat. No. 6,670,140). Because CRF2R and CRF1R are homologous proteins, it is expected that a certain proportion of agonists for CRF2R will also function as agonists of CRF1R. As discussed above, activation of CRF1R induces activation of the HPA axis since increased corticosteroid production leads to skeletal muscle atrophy. In most cases in which an increase in muscle mass or function is desired, it is not desirable to activate the HPA axis.
(§2) Cell-based assays include the steps of contacting cells which express CRF1R or CRF2R with a peptide of the present invention or control and measuring activation of the CRFR by measuring the expression or activity of components of the CRFR signal transduction pathways.
(§3) For example, after contact with a peptide of the present invention, lysates of the cells can be prepared and assayed for induction of cAMP. cAMP is induced in response to Gαs activation. Because Gαs is activated by receptors other than CRFR and because a test peptide may be exerting its effect through CRFRs or by another mechanism, two control comparisons are relevant for determining whether the peptide increases levels of cAMP via activation of a CRFR. One control compares the cAMP level of cells contacted with the peptide and the cAMP level of cells contacted with a control compound (i.e., the vehicle in which the peptide is dissolved).
(§4) In one example, cAMP induction is measured with the use of DNA constructs containing the cAMP responsive element linked to any of a variety of reporter genes can be introduced into cells expressing CRFRs. Such reporter genes include, but are not limited to, chloramphenicol acetyltransferase (CAT), luciferase, glucuronide synthetase, growth hormone, fluorescent proteins (e.g., Green Fluorescent Protein), or alkaline phosphatase. Following exposure of the cells to the peptide, the level of reporter gene expression can be quantitated to determine the peptide's ability to increase cAMP levels and thus determine the peptide's ability to activate the CRFR.
(§5) In addition to using cells expressing full length CRFRs, cells can be engineered which express CRFRs containing the ligand binding domain of the receptor coupled to, or physically modified to contain, reporter elements or to interact with signaling proteins. For example, a wild type CRFR or CRFR fragment can be fused to a G-protein resulting in activation of the fused G-protein upon agonist binding to the CRFR portion of the fusion protein. […] In addition, alternative pathways for induction of the CRE reporter could be eliminated to reduce basal levels.

Another assay deals with T2, CRF1R (Homo sapiens, UniProt P34998).
T2 sequence (P34998 24-415): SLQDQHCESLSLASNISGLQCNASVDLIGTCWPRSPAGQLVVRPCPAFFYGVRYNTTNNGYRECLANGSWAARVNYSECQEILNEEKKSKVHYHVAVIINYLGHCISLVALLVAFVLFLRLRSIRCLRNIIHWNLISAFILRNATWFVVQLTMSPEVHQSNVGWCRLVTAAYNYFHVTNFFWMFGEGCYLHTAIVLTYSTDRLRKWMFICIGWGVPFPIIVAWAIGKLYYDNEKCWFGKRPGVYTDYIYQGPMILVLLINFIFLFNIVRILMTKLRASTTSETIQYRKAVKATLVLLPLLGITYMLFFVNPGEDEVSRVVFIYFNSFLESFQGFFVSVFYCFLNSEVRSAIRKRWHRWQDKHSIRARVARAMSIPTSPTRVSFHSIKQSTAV
In words: CRF1R agonist activation (EC50 / Emax), called comparative CRF binding. The assay is classed as cell-based. Conditions: for Emax: read-out: CRF1R Emax.
Excerpt: as §1, §2, §3, §4, §5

The Emax is the maximal effect, on the per cent scale that the assay sets. Turning to `CC[C@H](C)[C@H](NC(=O)[C@@H](NC(=O)[C@H](C)NC(=O)[C@H](CC(C)C)NC(=O)[C@H](CC(C)C)NC(=O)[C@H](CC(C)C)NC(=O)[C@H](C)NC(=O)[C@H](CC(N)=O)NC(=O)[C@H](CC(N)=O)NC(=O)[C@H](C)NC(=O)[C@H](C)NC(=O)[C@H](CCC(N)=O)NC(=O)[C@H](CCC(N)=O)NC(=O)[C@H](CCCCN)NC(=O)[C@H](CCC(=O)O)NC(=O)[C@H](CCCCN)NC(=O)[C@H](CCC(=O)O)NC(=O)[C@H](CCC(N)=O)NC(=O)[C@H](CCCCN)NC(=O)[C@H](CCC(=O)O)NC(=O)[C@@H](NC(=O)[C@H](CCC(=O)O)NC(=O)[C@@H](NC(=O)[C@H](CCSC)NC(=O)[C@H](CCCCN)NC(=O)[C@H](CCCNC(=N)N)NC(=O)[C@H](CC(C)C)NC(=O)[C@H](CC(C)C)NC(=O)[C@H](Cc1ccc(O)cc1)NC(=O)[C@H](CC(C)C)NC(=O)[C@@H]1CCCN1C(=O)[C@H](CC(C)C)NC(=O)[C@H](CC(=O)O)NC(=O)[C@@H](NC(=O)[C@H](CO)NC(=O)[C@@H](NC(=O)[C@@H]1CCCN1C(=O)[C@@H]1CCCN1C(=O)CNC(=O)[C@@H]1CCC(=O)N1)[C@@H](C)CC)[C@@H](C)CC)[C@@H](C)CC)[C@@H](C)CC)[C@@H](C)O)C(N)=O` [compound 245], the Emax at CRF2R worked out at 93%; on CRF1R it was 100%.
The matching figures for `CC[C@H](C)[C@H](NC(=O)[C@@H](NC(=O)[C@H](CC(=O)O)NC(=O)[C@H](CC(C)C)NC(=O)[C@H](CC(C)C)NC(=O)[C@H](CC(C)C)NC(=O)[C@H](CCCNC(=N)N)NC(=O)[C@H](CC(N)=O)NC(=O)[C@H](CC(N)=O)NC(=O)[C@@H](NC(=O)[C@H](C)NC(=O)[C@H](CCC(N)=O)NC(=O)[C@H](CCC(N)=O)NC(=O)[C@H](CCCCN)NC(=O)[C@H](CCC(=O)O)NC(=O)[C@H](CCCCN)NC(=O)[C@H](CCC(=O)O)NC(=O)[C@H](CCC(N)=O)NC(=O)[C@H](CCCCN)NC(=O)[C@H](CCC(=O)O)NC(=O)[C@@H](NC(=O)[C@H](CCC(=O)O)NC(=O)[C@@H](NC(=O)[C@H](CCSC)NC(=O)[C@H](CCCCN)NC(=O)[C@H](CCCNC(=N)N)NC(=O)[C@H](CC(C)C)NC(=O)[C@H](CC(C)C)NC(=O)[C@H](CCC(N)=O)NC(=O)[C@H](Cc1ccccc1)NC(=O)[C@@H]1CCCN1C(=O)[C@H](CC(C)C)NC(=O)[C@H](CC(=O)O)NC(=O)[C@@H](NC(=O)[C@H](CO)NC(=O)[C@@H](NC(=O)[C@@H]1CCCN1C(=O)[C@@H]1CCCN1C(=O)CNC(=O)[C@@H]1CCC(=O)N1)[C@@H](C)CC)[C@@H](C)CC)[C@@H](C)CC)[C@@H](C)CC)[C@@H](C)O)[C@@H](C)O)C(N)=O` [compound 14]: 90% and 92%.
The matching figures for `CC[C@H](C)[C@H](NC(=O)[C@@H](NC(=O)[C@H](C)NC(=O)[C@H](CC(C)C)NC(=O)[C@H](CC(C)C)NC(=O)[C@H](CC(C)C)NC(=O)[C@H](C)NC(=O)[C@H](CC(N)=O)NC(=O)[C@H](CC(N)=O)NC(=O)[C@H](C)NC(=O)[C@H](C)NC(=O)[C@H](CCC(N)=O)NC(=O)[C@H](CCC(N)=O)NC(=O)[C@H](CCCCN)NC(=O)[C@H](CCC(=O)O)NC(=O)[C@H](CCCCN)NC(=O)[C@H](CCC(=O)O)NC(=O)[C@H](CCC(N)=O)NC(=O)[C@H](CCCCN)NC(=O)[C@H](CCC(=O)O)NC(=O)[C@@H](NC(=O)[C@H](CCC(=O)O)NC(=O)[C@@H](NC(=O)[C@H](CCSC)NC(=O)[C@H](CCCCN)NC(=O)[C@H](CCCNC(=N)N)NC(=O)[C@H](CC(C)C)NC(=O)[C@H](CC(C)C)NC(=O)[C@H](Cc1ccc(O)cc1)NC(=O)[C@H](Cc1ccccc1)NC(=O)[C@@H]1CCCN1C(=O)[C@H](CC(C)C)NC(=O)[C@H](CC(=O)O)NC(=O)[C@@H](NC(=O)[C@H](CO)NC(=O)[C@@H](NC(=O)[C@@H]1CCCN1C(=O)[C@@H]1CCCN1C(=O)CNC(=O)[C@@H]1CCC(=O)N1)[C@@H](C)CC)[C@@H](C)CC)[C@@H](C)CC)[C@@H](C)CC)[C@@H](C)O)C(N)=O` [compound 231]: 100% and 100%.
Turning to `CC[C@H](C)[C@H](NC(=O)[C@@H](NC(=O)[C@H](CC(=O)O)NC(=O)[C@H](CC(C)C)NC(=O)[C@H](CC(C)C)NC(=O)[C@H](CC(C)C)NC(=O)[C@H](CCCNC(=N)N)NC(=O)[C@H](CC(N)=O)NC(=O)[C@H](CC(N)=O)NC(=O)[C@H](C)NC(=O)[C@H](C)NC(=O)[C@H](CCC(N)=O)NC(=O)[C@H](CCC(N)=O)NC(=O)[C@H](CCCCN)NC(=O)[C@H](CCC(=O)O)NC(=O)[C@H](CCCCN)NC(=O)[C@H](CCC(=O)O)NC(=O)[C@H](CCC(N)=O)NC(=O)[C@H](CCCCN)NC(=O)[C@H](CCC(=O)O)NC(=O)[C@@H](NC(=O)[C@H](CCC(=O)O)NC(=O)[C@@H](NC(=O)[C@H](CCSC)NC(=O)[C@H](CCCCN)NC(=O)[C@H](CCCNC(=N)N)NC(=O)[C@H](CC(C)C)NC(=O)[C@H](CC(C)C)NC(=O)[C@@H](NC(=O)[C@H](Cc1ccccc1)NC(=O)[C@@H]1CCCN1C(=O)[C@H](CC(C)C)NC(=O)[C@H](CC(=O)O)NC(=O)[C@@H](NC(=O)[C@H](CO)NC(=O)[C@@H](NC(=O)[C@@H]1CCCN1C(=O)[C@@H]1CCCN1C(=O)CNC(=O)[C@@H]1CCC(=O)N1)[C@@H](C)CC)[C@@H](C)CC)[C@@H](C)CC)[C@@H](C)CC)[C@@H](C)CC)[C@@H](C)O)C(N)=O` [compound 189], the Emax on CRF2R was 96%; at CRF1R, 57%.
One may read the EC50 as the concentration at which the effect is half-maximal. Consider `CC[C@H](C)[C@H](NC(=O)[C@@H](NC(=O)[C@H](CC(=O)O)NC(=O)[C@H](CC(C)C)NC(=O)[C@H](CC(C)C)NC(=O)[C@H](CC(C)C)NC(=O)[C@H](CCCNC(=N)N)NC(=O)[C@H](CC(N)=O)NC(=O)[C@H](CC(N)=O)NC(=O)[C@H](C)NC(=O)[C@H](C)NC(=O)[C@H](CCC(N)=O)NC(=O)[C@H](CCC(N)=O)NC(=O)[C@H](CCCCN)NC(=O)[C@H](CCC(=O)O)NC(=O)[C@H](CCCCN)NC(=O)[C@H](CCC(=O)O)NC(=O)[C@H](CCC(N)=O)NC(=O)[C@H](CCCCN)NC(=O)[C@H](CCC(=O)O)NC(=O)[C@@H](NC(=O)[C@H](CCC(=O)O)NC(=O)[C@@H](NC(=O)[C@H](CCSC)NC(=O)[C@H](CCCCN)NC(=O)[C@H](CCCNC(=N)N)NC(=O)[C@H](CC(C)C)NC(=O)[C@H](CC(C)C)NC(=O)[C@H](CC(C)C)NC(=O)[C@H](Cc1ccccc1)NC(=O)[C@@H]1CCCN1C(=O)[C@H](CC(C)C)NC(=O)[C@H](CC(=O)O)NC(=O)[C@@H](NC(=O)[C@H](CO)NC(=O)[C@@H](NC(=O)[C@@H]1CCCN1C(=O)[C@@H]1CCCN1C(=O)CNC(=O)[C@@H]1CCC(=O)N1)[C@@H](C)CC)[C@@H](C)CC)[C@@H](C)CC)[C@@H](C)CC)[C@@H](C)O)C(N)=O` [compound 191], for which the results for the EC50 at CRF2R and on CRF1R (CRF1R EC50) were 8.3 nM and 63.7 nM, respectively. In addition, the maximal response (Emax) on CRF2R was 100%; on CRF1R it was 65%.
